Tested on: 5-HF1F
Settings: 5-HTR profiling

binding (in words): doesn’t bind
Compound: CNC(=O)c1cc(Oc2ccc(NC(=O)Nc3ccc(Cl)c(C(F)(F)F)c3)cc2)ccn1 [sorafenib]

From publication PMC3402552 (2012)
